The text below walks through data of ChEMBL document CHEMBL4406913, “INCB050465 (Parsaclisib), a Novel Next-Generation Inhibitor of Phosphoinositide 3-Kinase Delta (PI3Kδ)” (ACS Med Chem Lett, 2019).

This experiment deals with T1, Phosphatidylinositol 4,5-bisphosphate 3-kinase catalytic subunit delta isoform (Homo sapiens, UniProt O00329).
T1 sequence (O00329 whole entry): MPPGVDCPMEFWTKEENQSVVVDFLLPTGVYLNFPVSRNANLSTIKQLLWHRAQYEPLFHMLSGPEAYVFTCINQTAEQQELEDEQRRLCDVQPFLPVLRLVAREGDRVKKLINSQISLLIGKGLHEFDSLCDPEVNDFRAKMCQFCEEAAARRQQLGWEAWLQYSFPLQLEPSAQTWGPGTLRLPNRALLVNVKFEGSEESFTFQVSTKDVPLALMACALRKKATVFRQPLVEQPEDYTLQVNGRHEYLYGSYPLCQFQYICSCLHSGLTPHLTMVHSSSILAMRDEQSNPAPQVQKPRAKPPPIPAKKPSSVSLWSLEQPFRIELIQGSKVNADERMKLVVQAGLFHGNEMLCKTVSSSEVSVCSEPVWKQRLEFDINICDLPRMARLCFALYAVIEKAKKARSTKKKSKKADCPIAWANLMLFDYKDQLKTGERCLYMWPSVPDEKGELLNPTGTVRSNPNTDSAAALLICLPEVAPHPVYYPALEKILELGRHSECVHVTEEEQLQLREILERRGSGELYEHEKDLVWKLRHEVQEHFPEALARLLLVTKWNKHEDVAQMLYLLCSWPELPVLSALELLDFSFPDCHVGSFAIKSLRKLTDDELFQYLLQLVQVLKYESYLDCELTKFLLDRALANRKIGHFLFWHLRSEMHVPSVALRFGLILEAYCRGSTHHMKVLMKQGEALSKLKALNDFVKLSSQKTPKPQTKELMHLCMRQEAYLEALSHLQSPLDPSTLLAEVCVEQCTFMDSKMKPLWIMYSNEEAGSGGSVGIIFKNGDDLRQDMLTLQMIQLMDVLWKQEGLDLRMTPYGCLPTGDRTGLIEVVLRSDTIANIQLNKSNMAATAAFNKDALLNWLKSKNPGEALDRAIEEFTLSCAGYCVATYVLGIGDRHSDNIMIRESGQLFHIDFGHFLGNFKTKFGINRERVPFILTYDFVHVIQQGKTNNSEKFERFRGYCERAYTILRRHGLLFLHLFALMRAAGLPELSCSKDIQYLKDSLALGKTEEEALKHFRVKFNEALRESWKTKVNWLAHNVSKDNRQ

With `COc1c([C@H](C)Nc2ncnc3[nH]cnc23)cc(Cl)c(C)c1-c1ccc(S(C)(=O)=O)cc1`, the IC50 is 3.6 nM.
Next, `C[C@H](Nc1ncnc2[nH]cnc12)c1cc(Cl)c2ccnnc2c1-c1cccc(F)c1`: 13 nM.
